Laboratory results: BindingDB's records for doi:10.1021/jm950641i (1996)

Target: Dimer of Gag-Pol polyprotein [489-587] (Human immunodeficiency virus 1, UniProt P12497)
Assay: ASSAY_NAME: Protease Inhibition Assay DESCRIPTION: Enzymatic activity was measured by following cleavage of the substrate H-Lys-Ala-Arg-Val-Leu-pNph-Glu-Ala-Nle-NH2. Products of the cleavage reaction were quantified by HPLC detection.

CC(C)C1NC(=O)[C@@H](C(O)[C@H](Cc2ccccc2)NC(=O)OC(C)(C)C)NCc2cccc(c2)OCCCCNC1=O (stereo partly drawn) [tert-butyl N-[(1S,2S)-1-[(9R,12R)-8,11-dioxo-9-(propan-2-yl)-2-oxa-7,10,13-triazabicyclo[13.3.1]nonadeca-1(18),15(19),16-trien-12-yl]-1-hydroxy-3-phenylpropan-2-yl]carbamate] gave a Ki of 16.1 nM.
With CC(C)C1NC(=O)[C@@H](C(O)[C@H](Cc2ccccc2)NC(=O)OC(C)(C)C)NCc2ccc(cc2)OCCOCCOCCNC1=O (stereo partly drawn) [tert-butyl N-[(1S,2S)-1-[(13R,16R)-12,15-dioxo-13-(propan-2-yl)-2,5,8-trioxa-11,14,17-triazabicyclo[17.2.2]tricosa-1(21),19,22-trien-16-yl]-1-hydroxy-3-phenylpropan-2-yl]carbamate] the Ki was 12.6 nM.
